Test results as given in patent US9193744B2, “Heterocyclic nuclear hormone receptor modulators” (AbbVie Inc., priority 2012, dated 2015).
pIC50: −log10 of the molar value.

Amino acid sequences for entries named in this document (tags omitted).
UniProt P04150, whole entry: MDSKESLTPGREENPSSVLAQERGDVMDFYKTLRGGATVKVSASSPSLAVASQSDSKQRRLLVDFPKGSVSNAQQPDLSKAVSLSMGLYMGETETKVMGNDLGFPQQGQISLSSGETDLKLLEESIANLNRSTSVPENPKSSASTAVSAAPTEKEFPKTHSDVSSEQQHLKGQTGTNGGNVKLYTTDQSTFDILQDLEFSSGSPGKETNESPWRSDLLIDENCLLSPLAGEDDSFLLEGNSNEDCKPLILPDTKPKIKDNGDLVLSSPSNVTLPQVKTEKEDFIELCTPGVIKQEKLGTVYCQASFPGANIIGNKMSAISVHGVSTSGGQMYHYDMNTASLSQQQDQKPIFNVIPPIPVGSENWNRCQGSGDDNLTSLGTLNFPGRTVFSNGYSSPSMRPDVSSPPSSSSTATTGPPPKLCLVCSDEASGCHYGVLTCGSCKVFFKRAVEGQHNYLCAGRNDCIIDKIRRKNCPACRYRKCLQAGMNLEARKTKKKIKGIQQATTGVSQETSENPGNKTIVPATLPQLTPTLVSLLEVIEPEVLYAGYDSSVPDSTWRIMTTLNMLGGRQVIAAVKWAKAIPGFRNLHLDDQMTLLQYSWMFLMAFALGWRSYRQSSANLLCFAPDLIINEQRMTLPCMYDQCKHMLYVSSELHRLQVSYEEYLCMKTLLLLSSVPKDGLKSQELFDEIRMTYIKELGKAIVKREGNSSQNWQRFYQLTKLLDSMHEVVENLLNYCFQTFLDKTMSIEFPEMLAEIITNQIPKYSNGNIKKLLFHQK

Assays:
[1] = system: IL-6; assay: A549 Cell Assay to Measure Inflammation Markers (inhibition of IL-1β-induced IL-6); conditions: read-out: A549 cell assay; A549 cells
Description: A549 Cell Assay to Measure Inflammation Markers
A549 cells were seeded (3E4 cells/well) in 96-well assay plates in culture medium (100 μL/well., F-12 K base media, supplemented with 10% FBS and 100 μ/mL-100 μg/mL Pen-Strep.) After overnight culture in an incubator set to 37° C., 4.9% CO2, and 90% humidity, media was removed from adherent cells by aspiration and replaced with 100 μL/well Assay Medium (F-12 K base media supplemented with 5% charcoal stripped calf sera and 100 U/mL-100 μg/mL Pen-Strep.) Compounds were prepared in DMSO and serial diluted (1:3, 1:4, or 1:5) with DMSO in Dilution Plate(s) to give 10 dilution points for each compound tested. Further dilution (1:250) of compound was made into assay medium and 50 μL/well diluted drug or DMSO/media control was applied to cells. After a 1 h pre-incubation in a temperature, CO2, and humidity controlled incubator, set to 37° C., 50 μL/well of 4 ng/mL IL-1β diluted in assay media, was applied to cultures. Assay plates, with a final volume of 200 μL/well and final concentrations of 0.1% DMSO and 1 ng/mL IL-1β were returned to incubator for a four h incubation period. Next, plates were spun at 183 g (1000 rpm in Beckman/Coulter Allegra 6KR centrifuge) for 10 min. Cell-free supernatant (150 μL/well) was collected and IL-6 was measured by MSD kit, following protocol of manufacturer, and using MSD SECTOR Imager 6000 instrument. […]

[2] = molecular target: Glucocorticoid Receptor (GR) (Homo sapiens, UniProt P04150); assay: GR Fluorescence Polarization Assay (PolarScreen Glucocorticoid Receptor Competitor Assay, Red); conditions: read-out: GR binding; fluorescence polarization binding ranges
Description: Fluorescence polarization assays were carried out using the PolarScreen™ Glucocorticoid Receptor Competitor Assay, Red from Invitrogen (P2893). The assay buffer was prepared according to the manufacturer's protocol and used to dilute the fluorescent glucocorticoid and GR. Compounds were prepared and serial diluted 1:4 in DMSO. Compound, fluorescent glucocorticoid and GR were added in a final volume of 20 μL and incubated overnight at 4° C. Fluorescent polarization was measured on the PerkinElmer Envision®. Fluorescence polarization binding ranges measured using GR Fluorescence Polarization Assay: […]

| SMILES | pIC50 [1] | pIC50 [2] |
| --- | --- | --- |
| CC[C@]12CC[C@@](O)(COC)C[C@H]1CCOc1cc3c(cnn3-c3ccncn3)cc12 | < 5.00 | 5.00 to 6.00 |
| COC[C@]1(O)CC[C@]2(Cc3ccccn3)c3cn4cnc(-c5ccc(F)cc5)c4cc3CCC[C@@H]2C1 | – | 6.00 to 7.00 |
| CC[C@]1(O)CC[C@]2(Cc3ccccn3)c3cc4cnn(-c5ccc(F)cc5)c4cc3C(=O)CC[C@@H]2C1 | 6.00 to 7.00 | 6.00 to 7.00 |
